pIC50: −log10 of the molar value. Read-outs that look alike come from different tables or passages of the source.
How the values were obtained:
[1] = molecular target: HLA-DR DRB1*1101 (DR11) (Homo sapiens, UniProt P01903+P01911, A100R/A169T/A87E/I96F/K41T/L162R/M171V/P40S/Q125H/Q178H/Q39Y/Q99D/R42S/S66Y/T262R/V115G/W38E); assay: biochemical; type: binding
[2] = molecular target: HLA-DR DRB4*0101 (DR53) (Homo sapiens, UniProt P01903+P13762, G164S); assay: biochemical; type: binding
[3] = molecular target: HLA-A*2902 (Homo sapiens, UniProt P04439, A270S/D101N/D185E/E176V/E277Q/E87Q/F33T/G231S/H175R/I121M/I218V/I322F/K168Q/L300P/L318F/M331R/P208A/P217A/Q86L/T323A/T345S/V100A/V358M); assay: MHC molecular binding / Capture assay, IC50: A*2902; conditions: read-out: A*2902 binding affinity (IC50)
[4] = molecular target: HLA-DR DRB1*0301 (DR3) (Homo sapiens, UniProt P01903+P01911, A100K/A102G/A103R/A169T/F55Y/I96L/K41T/L162R/M171V/P40S/Q125H/Q178H/Q39Y/R42S/S66N/T106N/T262R/W38E/Y61H); assay: biochemical; type: binding; conditions: read-out: DRB1 *0301
[5] = molecular target: HLA-DR DRB1*0802 (DR8) (Homo sapiens, UniProt P01903+P01911, A100R/A103L/A169T/F76Y/H45Y/I96F/K41T/L162R/M171V/P40S/Q125H/Q178H/Q39Y/Q99D/R218S/R42G/S66Y/V115G/W38E); assay: biochemical; type: binding; conditions: read-out: DRB1 *0802
[6] = molecular target: HLA-DR DRB1*0701 (DR7) (Homo sapiens, UniProt P01903+P01911, A100R/A102G/A103Q/D57E/D86V/E43K/F76Y/K127E/L162R/M171V/P40G/Q125H/Q99D/R33Q/R42Y/R54Q/S133A/S66F/T210M/V115G/Y107V/Y59L/Y89S); assay: biochemical; type: binding; conditions: read-out: DRB1 *0701
[7] = molecular target: HLA-DR DRB1*0901 (DR9) (Homo sapiens, UniProt P01903+P01911, A100R/A103E/D57H/D86V/F55Y/F60I/F76Y/I96F/K127E/L162R/M171V/P40D/Q125H/Q99R/R33Q/R42F/S133A/S66N/T210M/V115G/W38K/Y107V/Y59G/Y89S); assay: biochemical; type: binding; conditions: read-out: DRB1 *0901

CC[C@H](C)[C@H](NC(=O)[C@@H](NC(=O)[C@@H](N)CCCNC(=N)N)[C@@H](C)O)C(=O)N[C@H](C(=O)N[C@@H](C)C(=O)N[C@@H](CC(=O)O)C(=O)N[C@H](C(=O)N[C@@H](Cc1ccccc1)C(=O)N[C@@H](CCCNC(=N)N)C(=O)N[C@@H](CCCCN)C(=O)N[C@@H](CC(C)C)C(=O)N[C@@H](Cc1ccccc1)C(=O)N[C@@H](CCCNC(=N)N)C(=O)N[C@H](C(=O)N[C@@H](Cc1ccc(O)cc1)C(=O)O)C(C)C)[C@@H](C)O)[C@@H](C)O
pIC50 ([1]; DRB1 *1101): 6.78

CC(C)C[C@H](NC(=O)[C@H](CCCNC(=N)N)NC(=O)[C@@H]1CCCN1C(=O)CNC(=O)[C@H](CCCNC(=N)N)NC(=O)[C@H](CCCNC(=N)N)NC(=O)[C@@H]1CCCN1C(=O)[C@H](CC(C)C)NC(=O)[C@H](C)NC(=O)[C@H](Cc1ccc(O)cc1)NC(=O)[C@@H](NC(=O)CNC(=O)CNC(=O)[C@@H](N)C(C)C)C(C)C)C(=O)NCC(=O)N[C@H](C(=O)O)C(C)C
pIC50 [2]: 4.58

EYRHYCYSLY
pIC50 [3]: 6.70

LGFLQRSSNTQTQK
pIC50 [4]: 4.58

LVNSSQPWEPLQLHV
pIC50 ([1]; read-out: DRB1 *1101): < 5.09

QKEDAAVTIYEMLQN
pIC50 ([1]; read-out: DRB1 *1101): < 3.39
pIC50 [5]: < 3.84
pIC50 [4]: < 3.81
pIC50 [6]: 4.34

QLQQFQKEDAAVTLY
pIC50 [5]: 5.31
pIC50 [4]: 4.76

REETQQKSNLELLR
pIC50 [4]: 4.04
pIC50 [6]: 4.29

SDSNVYDLLKNLEEG
pIC50 [7]: < 4.23
pIC50 [5]: < 4.48
pIC50 [4]: 4.26
pIC50 [6]: 3.74

STGWNETIVENLLAN
pIC50 [7]: < 4.11
pIC50 [5]: < 3.84
pIC50 [4]: < 3.81
pIC50 [6]: 5.40

VLERYLLEAKEAENI
pIC50 ([1]; read-out: DRB1 *1101): 4.76

VLERYLLEAYEAENI
pIC50 [4]: 4.23

VRTLQQLLMQTCTIV
pIC50 [4]: 4.49

YDFVFADLRIVYRNG
pIC50 [7]: 5.27

From patent US20060079453A1, “Hla binding peptides and their uses” (priority 2002, published 2006)
